The experiment has as its target RIPK1 (Homo sapiens, UniProt Q13546). The experiment can be described thus: biochemical.

Sequences of proteins named here, by UniProt entry; tags and fusion partners are left off.
UniProt Q13546, whole entry, species assumed: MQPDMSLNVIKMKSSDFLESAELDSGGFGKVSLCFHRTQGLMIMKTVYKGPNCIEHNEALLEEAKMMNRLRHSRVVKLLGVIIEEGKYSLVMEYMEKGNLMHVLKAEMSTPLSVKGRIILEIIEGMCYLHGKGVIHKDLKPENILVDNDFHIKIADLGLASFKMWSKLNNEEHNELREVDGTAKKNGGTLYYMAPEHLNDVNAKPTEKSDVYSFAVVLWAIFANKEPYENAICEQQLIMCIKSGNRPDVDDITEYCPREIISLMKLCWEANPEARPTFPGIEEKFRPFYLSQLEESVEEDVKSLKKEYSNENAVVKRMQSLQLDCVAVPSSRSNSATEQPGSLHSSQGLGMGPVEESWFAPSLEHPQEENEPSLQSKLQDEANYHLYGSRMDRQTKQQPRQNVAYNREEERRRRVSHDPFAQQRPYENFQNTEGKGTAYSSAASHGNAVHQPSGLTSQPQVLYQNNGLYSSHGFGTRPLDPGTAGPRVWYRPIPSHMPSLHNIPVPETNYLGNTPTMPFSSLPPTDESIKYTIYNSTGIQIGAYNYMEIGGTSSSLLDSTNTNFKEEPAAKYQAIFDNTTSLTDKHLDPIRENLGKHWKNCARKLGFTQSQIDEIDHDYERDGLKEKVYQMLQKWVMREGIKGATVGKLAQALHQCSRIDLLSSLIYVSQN

This note sets out measurements from patent US20230112865A1, “RIP1 INHIBITORY COMPOUNDS AND METHODS FOR MAKING AND USING THE SAME” (Rigel Pharmaceuticals, Inc., priority 2019, published 2023).

As usually defined, the IC50 is the midpoint of a concentration-inhibition curve. A high value points to weaker potency.

In turn, `CN1C(=O)[C@@H](NC(=O)n2cc(Cc3ccc(F)cc3F)cn2)COc2ccc(C#CC(C)(C)CO)cc21` [Compound I-239, (S)-4-(2,4-Difluorobenzyl)-N-(7-(4-hydroxy-3,3-dimethylbut-1-yn-1-yl)-5-methyl-4-oxo-2,3,4,5-tetrahydrobenzo[b][1,4]oxazepin-3-yl)-1H-pyrazole-1-carboxamide] came in with a half-inhibitory concentration (IC50) of 43.4 nM. This lies in the double-digit nanomolar range.
